The test system of one assay is CDP-diacylglycerol. The assay is described as follows: [3H]CDP-diacylglycerol accumulation in rat brain slices. The settings on record: for effect on [3H]CDP-diacylglycerol accumulation: rat hippocampal, prefrontal cortical and striatal slices, LiCl present, 90 min. The assay is classed as cell-based.
A further assay deals with phosphatidylinositides. The assay is described as follows: [3H]inositol phospholipid (phosphatidylinositide) resynthesis in rat brain slices. It is filed as cell-based. Conditions: hippocampus, frontal cortex, striatum slices; 90 min.
A further assay concerns inositol phosphates. The assay is described as follows: [3H]inositol phosphate accumulation in rat brain slices. It is filed as cell-based. The settings on record: 3-300 μM; hippocampus, frontal cortex, striatum slices.
The next assay concerns 5HT2 receptor. The assay is described as follows: α-methylserotonin-stimulated IP accumulation in tissues prelabeled with [3H]inositol in presence of antidepressants. The assay is classed as cell-based, rat.

As to `CNCCCN1c2ccccc2CCc2ccccc21` [desipramine], the “effect on [3H]CDP-diacylglycerol accumulation” value in the assay on CDP-diacylglycerol is “significantly and dose-dependently enhanced”. In the assay with phosphatidylinositides, the “effect on [3H]inositol labeling of PIs (phosphatidylinositide synthesis)” value is on record as “significantly increased”. Moreover, in the assay with inositol phosphates, the “effect on accumulation of IPs” value is “significantly and dose-dependently stimulated”.

On to `Fc1ccc([C@@H]2CCNC[C@H]2COc2ccc3c(c2)OCO3)cc1` [paroxetine], for which the “lowest concentration with statistically significant CDP-diacylglycerol response” value in the assay on CDP-diacylglycerol (hippocampus slices, posthoc Dunnett test) was determined as 30 µM. In addition, the “effect on [3H]CDP-diacylglycerol accumulation” value in the assay with CDP-diacylglycerol was “significantly and dose-dependently enhanced”. The “effect on [3H]inositol labeling of PIs (phosphatidylinositide synthesis)” value in the assay on phosphatidylinositides is listed as “significantly increased”. For the same compound, the “effect on accumulation of IPs” value in the assay with inositol phosphates is “significantly and dose-dependently stimulated”.

On to `CNCCC(Oc1ccc(C(F)(F)F)cc1)c1ccccc1` (stereo not drawn) [fluoxetine], for which, in the assay on 5HT2 receptor, the “enhancement of α-Me5HT-induced IP accumulation by prelabeling in presence of antidepressant” value is “significantly enhanced” and the “enhancement of α-methylserotonin effects on IP by prelabeling with antidepressant” value is “concentration-dependently enhanced”.

Source of the values: patent US8278296B2, “Manipulation of brain CDP-diacylglycerol and uses thereof” (priority 2006, dated 2012).
